Tested on: MDA-MB-231 cells
Assay: CellTiter-Glo cell viability, MDA-MB-231
Format: cell-based
Conditions: EGF 5 nmol, exosomes at concentration gradient, 4 days; P<0.01, Tukey test
Procedure: MDA-MB-231 and HCC827 cells (ATCC) at well growth state were taken and diluted to a concentration of 5×10^3/ml, then inoculated in a 96-well cell culture plate at 200 μl/well, and cultivated in an incubator at 37° C. and 5% CO2 for 24 h. Then EGF with a final concentration of 5 nmol and exosomes with a concentration gradient were added to the culture, and the cetuximab antibody (purchased from Merck) was adopted as a control. Four days later, the cell viability was determined with CellTiter-Glo Luminescent Cell Viability Assay kit (Promega, Madison, Wis.).

cetuximab
inhibition of viability of MDA-MB-231 cells: naturally resistant
